Experimental data from patent US5714615A (priority 1994, dated 1998).

Protein sequences, listed by entry. Tags and fused reporters are not part of them. Residues count along the entry.
UniProt O42275, 24-633 limits assumed: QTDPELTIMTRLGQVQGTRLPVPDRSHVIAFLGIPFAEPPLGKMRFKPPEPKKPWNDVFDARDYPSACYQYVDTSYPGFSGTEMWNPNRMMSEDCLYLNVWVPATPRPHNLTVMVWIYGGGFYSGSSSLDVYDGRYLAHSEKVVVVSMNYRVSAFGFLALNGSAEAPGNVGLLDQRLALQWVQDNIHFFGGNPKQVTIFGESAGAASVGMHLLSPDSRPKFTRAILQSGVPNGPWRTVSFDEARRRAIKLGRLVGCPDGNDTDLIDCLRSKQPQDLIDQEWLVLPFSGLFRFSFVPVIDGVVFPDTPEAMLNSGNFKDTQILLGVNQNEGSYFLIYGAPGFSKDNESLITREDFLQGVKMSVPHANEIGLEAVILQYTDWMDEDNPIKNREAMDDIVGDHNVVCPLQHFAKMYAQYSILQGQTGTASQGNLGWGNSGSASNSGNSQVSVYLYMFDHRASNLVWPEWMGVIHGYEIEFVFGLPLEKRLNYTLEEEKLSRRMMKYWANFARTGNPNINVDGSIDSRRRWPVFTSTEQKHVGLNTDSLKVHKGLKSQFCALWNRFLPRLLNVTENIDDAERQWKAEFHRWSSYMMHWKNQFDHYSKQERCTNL

Target: electric eel AChE (Electrophorus electricus, UniProt O42275)
Test: Reversible (competitive) inhibition of electric eel AChE
Assay type: biochemical
Conditions: 0.32 mM inhibitor

## CN(C)C(=O)Oc1ccc[n+](C)c1C=NNC(=O)Nc1c(Cl)cccc1Cl
  % Inhibition: 49%

Some compounds may have been tested in ways that are not shown here.
